Reference: patent US20200362033A1 (Daiichi Sankyo, published 2020)

B1: 4A5 (prepared based on the sequences of WO2010/036460) (antibody, V domains shown)
VH: EVQLQQSGPELVKPGASVKISCKASGYTFTDYYMNWVKQSHGKSLEWIGGINPNNGGTSYNQKFKGKATLTVDKSSSTAYMELRSLTSEDSAVYYCARNDGYRGYAMDYWGQGTSVTVSS
VL: not shown
B2: 5F6 (prepared based on the sequences of WO2010/036460) (antibody, V domains shown)
VH: EMKLEESGGGLVQPGGSMKLSCVASGFTFSNYWMNWVRQSPEKGLEWVAQIRLKSYNYATHYAESVKGRFTISRDDSKSSVYLQMNNLRAEDTGIYYCTPDGSDYWGQGTTLTVSS
VL: SIVMTQTPKFLLVSAGDRVTITCKASQSVSNDVAWYQQKPGQSPKLLIYYASNRYTGVPDRFTGSGYGTDFTFTISTVQAEDLAVYFCQQDYSSPYTFGGGTKLEIK
B3: PPAT-082-03 (prepared based on the sequences of WO2017/061602) (antibody, V domains shown)
VH: QVQLVQSGAEVKEPGASVKVSCKASGYTFTSYGISWVRQAPGQGLEWMGWINPNSGGTNYAQKFQGRVTMTRDMSISTAYMELSRLRSDDTAVYYCARGRGSYYAFDIWGQGTMVTVSS
VL: not shown

Molecular target: T1, hCD147v2 (22-205), CD147 protein expressed in Escherichia coli, tag cleaved (human, UniProt P35613-2 22-205)
T1 construct: also called human CD147
T1 sequence: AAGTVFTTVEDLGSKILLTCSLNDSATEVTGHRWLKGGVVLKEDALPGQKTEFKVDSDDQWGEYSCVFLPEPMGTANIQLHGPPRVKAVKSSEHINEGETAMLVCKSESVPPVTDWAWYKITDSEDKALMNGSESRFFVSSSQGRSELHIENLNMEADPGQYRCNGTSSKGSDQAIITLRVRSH
Assay: SPR (Biacore T200), antibody captured, CD147 as analyte, 1:1 model

Row | Kd [nM] | Binder
1 | 132 | B1
2 | 71.9 | B2
3 | 33.2 | B3
